# Measured values reported in publication PMC7723054.
# This is one part of the list.
# T1: LIN28A (human?, UniProt Q9H9Z2 1-209)
# T1 sequence: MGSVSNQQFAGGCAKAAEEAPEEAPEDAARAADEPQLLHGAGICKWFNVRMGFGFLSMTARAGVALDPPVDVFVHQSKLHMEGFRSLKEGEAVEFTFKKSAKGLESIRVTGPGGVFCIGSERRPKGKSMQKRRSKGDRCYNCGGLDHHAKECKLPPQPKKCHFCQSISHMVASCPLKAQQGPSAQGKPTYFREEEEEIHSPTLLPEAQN
# T2: CIRBP (Homo sapiens, UniProt Q14011 1-172)
# T2 sequence: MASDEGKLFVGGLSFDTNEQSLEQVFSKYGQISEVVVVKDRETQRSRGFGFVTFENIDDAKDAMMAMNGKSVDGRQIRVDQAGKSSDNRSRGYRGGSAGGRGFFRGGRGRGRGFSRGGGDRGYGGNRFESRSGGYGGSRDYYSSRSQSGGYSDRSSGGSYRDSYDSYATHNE
# T3: DHX36 (Homo sapiens, UniProt Q9H2U1 1-1008)
# T3 sequence: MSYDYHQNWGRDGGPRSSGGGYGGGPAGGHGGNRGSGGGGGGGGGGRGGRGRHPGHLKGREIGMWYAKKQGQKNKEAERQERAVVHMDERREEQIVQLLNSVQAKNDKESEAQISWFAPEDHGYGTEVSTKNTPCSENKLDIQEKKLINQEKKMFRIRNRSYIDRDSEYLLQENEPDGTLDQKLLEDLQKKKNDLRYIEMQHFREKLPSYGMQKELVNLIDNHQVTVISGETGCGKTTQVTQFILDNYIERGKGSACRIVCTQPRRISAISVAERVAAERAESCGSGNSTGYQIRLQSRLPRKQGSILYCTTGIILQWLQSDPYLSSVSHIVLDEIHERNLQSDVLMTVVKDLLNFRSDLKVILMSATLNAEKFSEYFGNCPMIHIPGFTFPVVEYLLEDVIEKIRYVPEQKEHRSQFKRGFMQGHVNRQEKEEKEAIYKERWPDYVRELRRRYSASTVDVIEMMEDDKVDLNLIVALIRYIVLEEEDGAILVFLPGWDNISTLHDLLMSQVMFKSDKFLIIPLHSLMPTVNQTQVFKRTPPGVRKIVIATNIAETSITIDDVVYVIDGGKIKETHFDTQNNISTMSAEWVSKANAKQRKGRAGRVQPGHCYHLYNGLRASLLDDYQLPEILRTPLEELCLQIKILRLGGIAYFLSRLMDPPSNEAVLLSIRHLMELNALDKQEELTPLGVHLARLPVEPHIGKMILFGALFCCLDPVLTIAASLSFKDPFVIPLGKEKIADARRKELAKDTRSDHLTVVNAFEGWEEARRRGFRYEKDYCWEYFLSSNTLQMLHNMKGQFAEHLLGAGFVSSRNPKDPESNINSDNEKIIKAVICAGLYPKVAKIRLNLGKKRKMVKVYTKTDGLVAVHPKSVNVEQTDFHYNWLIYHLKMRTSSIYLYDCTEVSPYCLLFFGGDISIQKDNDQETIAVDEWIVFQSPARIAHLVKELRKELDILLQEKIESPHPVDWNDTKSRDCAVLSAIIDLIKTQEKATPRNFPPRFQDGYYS
# B1: hsa-mir-320c-2 (structured_RNA)
# RNA: GGGAAGUCUGCGGAAGUCAGUUUCGAUCGGUGUACGAAGUUUCAGCUCUUCCCAGAAUUGGGAAAAGCUGAAGCUUCGUGCAC
# B2: hsa-mir-6806 (structured_RNA)
# RNA: GGGAAAGAGCACGACCGCCUCCUUGAAUGGUGUACGAAGUUUCAGCCCAGGUUCCAUGUGAUGCUGAAGCUGAAGCUUCGUGCAC
# B3: hsa-mir-3199-1 (structured_RNA)
# RNA: GGGAAGCUAAUCGAACCGUGCAUUCAGUGGUGUACGAAGUUUCAGCAGUUUCUGGAAGUUCUGACAUUCCAGAAACUGCUGAAGCUUCGUGCAC
# B4: hsa-mir-1587 (structured_RNA)
# RNA: GGGAACGACUCCGAAAGUUUGCAUGCCUGGUGUACGAAGUUUCAGCUGGGCAGUUCUUCUGCUGGGCUGAAGCUUCGUGCAC
# B5: hsa-mir-5701-1_5701-2_5701-3 (structured_RNA)
# RNA: GGGAGGCAGCUUCCGAAAACGCAAUAUUGGUGUACGAAGUUUCAGCGAUUGGUUAGCCUAAGACUUGUUCUGAUCCAAUCGCUGAAGCUUCGUGCAC
# B6: NEAT1_ParasoR_ID33 (structured_RNA)
# RNA: GGGAGCGCAAUCGUUAGACCAAAAGCUCGGUGUACGAAGUUUCAGCUACAAGUUUUUGUGGCUGAAGCUUCGUGCAC
# B7: hsa-mir-6729 (structured_RNA)
# RNA: GGGAAGGUCUAACACCGGUUCAAUAGCAGGUGUACGAAGUUUCAGCCUGAGCGGCUCCAUCCCCCGGCCUGCUCAUGCUGAAGCUUCGUGCAC
# B8: hsa-mir-1973 (structured_RNA)
# RNA: GGGAAUACCCGAUUAAGGGAAACCCCGUGGUGUACGAAGUUUCAGCUGGUAUCCUGACCGGCUGAAGCUUCGUGCAC
# B9: hsa-mir-452 (structured_RNA)
# RNA: GGGAACGAAACCGCGUGCUCUCAUGGAUGGUGUACGAAGUUUCAGCGGAAACUGAGACUUUGUAACUAUGUCUCAGUCUCAGCUGAAGCUUCGUGCAC
# B10: PARIS_ID15 (structured_RNA)
# RNA: GGGAAUUCAGCGCCGGUUCCAUAGCUCGGGUGUACGAAGUUUCAGCCCAGAGGAGGCAGCAUCUGUAGGUGUCUUCACCUGCUCUGGGCUGAAGCUUCGUGCAC
# B11: hsa-mir-500b (structured_RNA)
# RNA: GGGAAACGGCAACAGAUACCUAGUCAAAGGUGUACGAAGUUUCAGCGGGUGAGAGUGCUUUCUGAAUGCAGUGCACCCGCUGAAGCUUCGUGCAC
# B12: hsa-mir-8080 (structured_RNA)
# RNA: GGGACGAUCCUGUUCGCCUCUCAGUCUAGGUGUACGAAGUUUCAGCGCUGAGCCCUUUGAUAAGGGGGAGGUUGCUGAAGCUUCGUGCAC
# B13: hsa-mir-4266 (structured_RNA)
# RNA: GGGAAGCCACUAACGUUACUUCAAGGAUGGUGUACGAAGUUUCAGCCUACUCAAGGCUAGGCUGAAGCUUCGUGCAC
# B14: hsa-mir-4474 (structured_RNA)
# RNA: GGGAAAGCACGCUCCGUCCACGAGUUACGGUGUACGAAGUUUCAGCCACAAAUAUGGCUCUUUGUGGCUGAAGCUUCGUGCAC
# B15: hsa-mir-4671 (structured_RNA)
# RNA: GGGAAUAAGGUGUAGCCUAAGACAAACAGGUGUACGAAGUUUCAGCCUAAUCUCUUAGCACUGAAGAUUAGGCUGAAGCUUCGUGCAC
# B16: hsa-mir-548p (structured_RNA)
# RNA: GGGAAGUUCAUUGGACGCAGCGUUCUGGGGUGUACGAAGUUUCAGCGUCAUUACUUUCAAUAGCGCUGAAGCUUCGUGCAC
# B17: hsa-mir-6877 (structured_RNA)
# RNA: GGGAAAUGCUGGAUAGUGCAUUGAACACGGUGUACGAAGUUUCAGCGCUGCUGGUGCUCAUCUCAGCGCUGAAGCUUCGUGCAC
# B18: hsa-mir-4475 (structured_RNA)
# RNA: GGGAAUGAAAAUUAAGGACGAGCCAACGGGUGUACGAAGUUUCAGCAAUGACUCAUAGUCAAGCUGAAGCUUCGUGCAC
# B19: hsa-mir-2909 (structured_RNA)
# RNA: GGGAACCGAGAUCACGUUUGCGUCUUACGGUGUACGAAGUUUCAGCUUGGUCUUUCCCCUGUGGUCCCAAGCUGAAGCUUCGUGCAC
# B20: hsa-mir-4715 (structured_RNA)
# RNA: GGGAAAUGGCGUCCCCAGUGCUAACACAGGUGUACGAAGUUUCAGCGUGGCUAAUCAGCUGAUGGUGCCACGCUGAAGCUUCGUGCAC
# B21: hsa-mir-4298 (structured_RNA)
# RNA: GGGAACCCAAAGUUGGGCAGAGCAAUACGGUGUACGAAGUUUCAGCGCAGCCUUGCGCUGAAGCUUCGUGCAC
# B22: hsa-mir-8084 (structured_RNA)
# RNA: GGGAGGACACCUGAUGACGCCACUCUACGGUGUACGAAGUUUCAGCAGUAUGGAUUAAAUUUAUAUUUUCCUCGAUACUGCUGAAGCUUCGUGCAC
# B23: hsa-mir-636 (structured_RNA)
# RNA: GGGAACUGACGCUAACACUGGAUGAAAUGGUGUACGAAGUUUCAGCCGCUGCCUGGAAUUAACCCCGCUGUGGCUGAAGCUUCGUGCAC
# B24: hsa-mir-4798 (structured_RNA)
# RNA: GGGAAUAGACCGUAGGCGACUUGCACCCGGUGUACGAAGUUUCAGCAAUUGGCUUUUACAAAAGACCAACUGCUGAAGCUUCGUGCAC
# B25: hsa-mir-6502 (structured_RNA)
# RNA: GGGAUGUAGUGUACCCCUACACAGAGGCGGUGUACGAAGUUUCAGCUUGACCAAUCAUCUUAUUGACUAGAGCUGAAGCUUCGUGCAC
# B26: hsa-mir-4328 (structured_RNA)
# RNA: GGGAAGAGGUCUGCGUAGAGCUGUUGGCGGUGUACGAAGUUUCAGCUUGAGAACCAGGCUGAAGCUUCGUGCAC
# Target: T1, LIN28A
# Experiment: FOREST: bead pull-down of RNA structure library v1, barcode microarray; U1A/LIN28A: 20 mM HEPES pH 7.5, 80 mM KCl, 20 mM NaCl, 10% glycerol, 2 mM DTT, 0.1 ug/uL BSA, 4 C; BG4/CIRBP/DHX36: 10 mM Tris-HCl pH 7.5, 100 mM KCl (or LiCl),; high values mean tight binding
row,Binder,binding signal [z-score]
1,B1,-1.34
2,B2,-1.26
3,B3,-1.28
4,B4,-1.25
5,B5,-1.34
6,B6,-1.26
7,B7,-1.27
8,B8,-1.27
9,B9,-1.3
10,B10,-1.27
11,B11,-1.32
12,B12,-1.25
13,B13,-1.31
14,B14,-1.29
15,B15,-1.26
16,B16,-1.25
17,B17,-1.24
18,B18,-1.28
19,B19,-1.25
20,B20,-1.29
21,B21,-1.31
22,B22,-1.3
23,B23,-1.32
24,B24,-1.33
25,B25,-1.3
26,B26,-1.26

# Target: T2, CIRBP
# Experiment: as above
row,Binder,binding signal [z-score]
1,B1,-0.0315
2,B2,0.141
3,B3,-0.427
4,B4,-1.2
5,B5,-0.806
6,B6,-0.526
7,B7,-0.543
8,B8,-0.0118
9,B9,0.428
10,B10,0.169
11,B11,-0.791
12,B12,-2.61
13,B13,-0.334
14,B14,-0.623
15,B15,0.196
16,B16,0.338
17,B17,-0.157
18,B18,-0.0219
19,B19,-0.0873
20,B20,-0.115
21,B21,-0.0898
22,B22,-0.565
23,B23,-0.744
24,B24,0.0288
25,B25,-0.497
26,B26,0.371

# Target: T3, DHX36
# Experiment: as above
row,Binder,binding signal [z-score]
1,B1,-1.17
2,B2,-0.151
3,B3,-0.167
4,B4,-1.37
5,B5,-1.29
6,B6,-1.8
7,B7,-0.688
8,B8,-1.28
9,B9,-0.659
10,B10,-0.303
11,B11,0.0802
12,B12,-1
13,B13,-0.198
14,B14,-0.435
15,B15,-0.487
16,B16,-0.588
17,B17,0.0147
18,B18,-0.716
19,B19,-0.952
20,B20,-0.572
21,B21,-0.523
22,B22,0.419
23,B23,-1.14
24,B24,-0.553
25,B25,-1.75
26,B26,0.013
